Source: ChEMBL document CHEMBL3804770, “Far-Red Light-Activatable Prodrug of Paclitaxel for the Combined Effects of Photodynamic Therapy and Site-Specific Paclitaxel Chemotherapy” (J Med Chem, 2016)

By UniProt entry, the sequences of proteins in these tests, tags left out.
UniProt P02554, whole entry, looked up: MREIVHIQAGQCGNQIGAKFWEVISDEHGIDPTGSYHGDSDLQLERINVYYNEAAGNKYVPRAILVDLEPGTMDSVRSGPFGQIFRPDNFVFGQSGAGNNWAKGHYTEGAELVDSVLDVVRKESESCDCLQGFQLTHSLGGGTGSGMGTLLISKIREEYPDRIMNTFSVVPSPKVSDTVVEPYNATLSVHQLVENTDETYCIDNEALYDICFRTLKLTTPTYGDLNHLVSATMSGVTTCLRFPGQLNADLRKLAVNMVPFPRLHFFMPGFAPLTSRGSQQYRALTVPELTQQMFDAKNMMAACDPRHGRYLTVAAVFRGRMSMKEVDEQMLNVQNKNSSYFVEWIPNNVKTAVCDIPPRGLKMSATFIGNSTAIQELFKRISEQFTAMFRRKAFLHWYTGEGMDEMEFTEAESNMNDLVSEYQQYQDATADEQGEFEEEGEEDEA
UniProt P02550, whole entry, looked up: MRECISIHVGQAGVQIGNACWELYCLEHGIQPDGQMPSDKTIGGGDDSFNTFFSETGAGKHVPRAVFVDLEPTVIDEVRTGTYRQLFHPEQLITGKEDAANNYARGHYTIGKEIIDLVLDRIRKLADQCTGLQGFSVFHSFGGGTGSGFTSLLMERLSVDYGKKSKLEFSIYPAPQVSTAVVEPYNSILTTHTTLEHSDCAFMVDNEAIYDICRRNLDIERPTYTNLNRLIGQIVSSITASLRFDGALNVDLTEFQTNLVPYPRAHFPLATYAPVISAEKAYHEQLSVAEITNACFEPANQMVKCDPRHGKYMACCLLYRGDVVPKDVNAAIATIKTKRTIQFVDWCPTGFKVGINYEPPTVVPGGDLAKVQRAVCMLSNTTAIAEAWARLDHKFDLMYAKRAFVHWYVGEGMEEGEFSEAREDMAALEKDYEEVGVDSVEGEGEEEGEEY

Target: Tubulin (Sus scrofa) (UniProt P02554+P02550)
Assay: Induction of porcine brain tubulin polymerization assessed as time required to reach maxium effect at 3 uM measured every 2 mins for 1 hr by fluorescence analysis in presence of GTP

- TIME: 0.267 h
SMILES: CC(=O)O[C@H]1C(=O)[C@@]2(C)[C@H]([C@H](OC(=O)c3ccccc3)[C@]3(O)C[C@H](OC(=O)[C@H](O)[C@@H](NC(=O)c4ccccc4)c4ccccc4)C(C)=C1C3(C)C)[C@]1(OC(C)=O)CO[C@@H]1C[C@@H]2O [PACLITAXEL]
